Only a part is listed here, and it is no random draw. Results filed as inconclusive are left out. Calls of active or inactive are those of the source. Calls come from the whole dose curve; as a rule, active = well fitted inhibition curve with a large enough effect; inconclusive = small, poorly fitted or top-dose-only effect, or effect the other way; inactive = no such curve, though single readings can be large or run the other way.
Biological target: Nuclear receptor ROR-gamma (Mus musculus) (UniProt P51450)
Experiment: qHTS for inhibitors of ROR gamma transcriptional activity; note: nearly all actives have a fitted effect of over 60% in size
Details: Drosophila S2 Gal4-RORgamma UAS-luciferase reporter, 20 h; series mostly up to 53.6 µM; activity change, negative = inhibition: at the top concentration
% is set by controls: 0 for no effect and ±100 for the full control effect; potency is the fitted concentration of half-maximal effect.

Chains of the proteins cited; added tags and fusions are not shown. Lines headed by an entry give the natural chain unless they say otherwise; changes in a name come on top.
UniProt P51450: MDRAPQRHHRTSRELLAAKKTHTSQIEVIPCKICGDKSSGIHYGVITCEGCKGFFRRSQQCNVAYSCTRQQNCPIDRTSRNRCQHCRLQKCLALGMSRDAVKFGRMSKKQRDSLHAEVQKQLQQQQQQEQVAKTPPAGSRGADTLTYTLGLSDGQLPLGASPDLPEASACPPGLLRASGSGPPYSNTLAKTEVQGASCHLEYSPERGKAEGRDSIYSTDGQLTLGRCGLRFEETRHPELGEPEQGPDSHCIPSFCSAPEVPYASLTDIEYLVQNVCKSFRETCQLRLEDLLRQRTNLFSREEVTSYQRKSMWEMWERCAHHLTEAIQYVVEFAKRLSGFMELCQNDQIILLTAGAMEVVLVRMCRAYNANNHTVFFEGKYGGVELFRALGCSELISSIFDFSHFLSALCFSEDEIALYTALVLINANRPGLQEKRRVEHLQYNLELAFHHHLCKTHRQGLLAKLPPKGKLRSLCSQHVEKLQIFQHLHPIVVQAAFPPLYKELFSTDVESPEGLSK

| Structure (SMILES) | activity change, negative = inhibition | Potency |
| --- | --- | --- |
| CCOC(=O)NC(Sc1ccccc1)C(Cl)(Cl)Cl (stereo not given) | inactive: -2.74% |  |
| Cc1ccc(NP(=O)(Oc2cccc(C)c2)Oc2cccc(C)c2)nc1 | inactive: 1.74% |  |
| c1ccc(-c2nn[nH]n2)c(-c2nn[nH]n2)c1 | inactive: -8.29% |  |
| O=C(NC1CCS(=O)(=O)C1)NP(=S)(Oc1ccccc1)Oc1ccccc1 (stereo not given) | inactive: 0.679% |  |
| CCNC(=S)/N=C(\N)N[N+](=O)[O-] | inactive: -43.6% |  |
| CN(C)C(=O)Oc1noc2ccccc12 | inactive: -19% |  |
| O=c1c2cc([N+](=O)[O-])ccc2[nH]c2c([N+](=O)[O-])cc([N+](=O)[O-])cc12 |  | active: 1 µM |
| Cc1ccccc1OP(=O)(Nc1ccccn1)Oc1ccccc1C | inactive: 32.3% |  |
| CCC(=O)N1C2C3N(C(=O)CC)C1C1N(C(=O)CC)C(C(N1C(=O)CC)N3C(=O)CC)N2C(=O)CC | inactive: 18% |  |
| O=C(OC1CN2CCC1CC2)c1ccccc1 (stereo not given) |  | inactive |
| COC(=O)c1cc2c(s1)N=C(c1ccccc1)N(C)P2(=O)N1CCOCC1 (stereo not given) | inactive: -0.612% |  |
| O=P1(Nc2nc3ccc(Cl)cc3s2)COc2ccccc2O1 (stereo not given) | inactive: 2.7% |  |
| CC(=O)Nc1ccc(Oc2c([N+](=O)[O-])cc([N+](=O)[O-])cc2[N+](=O)[O-])cc1 | inactive: 30.8% |  |
| CC(=O)Nc1ccc([As](=O)(O)O)c(O)c1 | inactive: 0.331% |  |
| C[C@@H]1C=CCP(=O)(Oc2ccccc2)O1 (stereo not given in full) | inactive: -25.8% |  |
| C[C@H]1OP(=O)(Oc2ccccc2)C[C@@H]2O[C@@H]21 (stereo not given in full) | inactive: 4.7% |  |
| CC(=O)c1ccc(N2CC2c2ccncc2)cc1 (stereo not given) | inactive: 6.58% |  |
| Clc1ccc(Cl)c(NC2=NCC(CBr)S2)c1 (stereo not given) | inactive: 15.1% |  |
| CN1CCCC(OC(=O)C(c2ccccc2)c2ccccc2)C1 (stereo not given) | inactive: -38.4% |  |
| Cc1ccc(OP(=O)(Nc2nccs2)Oc2ccc(C)cc2)cc1 | inactive: -42.1% |  |
| COc1ccccc1OP(=O)(Nc1ccc(C)cn1)Oc1ccccc1OC | inactive: -3.51% |  |
| Cc1ccc(N/C(=N/P(=O)(N2CCOCC2)N2CCOCC2)N2CCOCC2)cc1 | inactive: 0.0524% |  |
| NC(=O)c1cc([N+](=O)[O-])cc([N+](=O)[O-])c1N | inactive: -2.62% |  |
| O=C(NC(Sc1ccncn1)C(Cl)(Cl)Cl)c1ccccc1 (stereo not given) |  | active: 10 µM |
| Oc1ccccc1CNc1ccccn1 | inactive: 5.62% |  |

| Structure (SMILES) | activity change, negative = inhibition | Potency |
| --- | --- | --- |
| CC(C)CC(=O)NC(Sc1ccc(Cl)cc1)C(Cl)(Cl)Cl (stereo not given) | inactive: 6.76% |  |
| Nc1cc(N)c2nonc2c1[N+](=O)[O-] | inactive: 21.9% |  |
| CN(C(=O)Cc1ccc(Cl)c(Cl)c1)[C@H]1CCCC[C@@H]1N1CCCC1 |  | inactive |
| Cc1ccc(NP(=O)(Oc2ccccc2F)Oc2ccccc2F)nc1 | inactive: -15.4% |  |
| CCOP(=O)(Nc1ccccc1)OCC |  | inactive |
| Cc1cc(SC(NC(=O)c2ccc(F)cc2)C(Cl)(Cl)Cl)ncn1 (stereo not given) |  | active: 12.6 µM |
| O=P(Nc1nc2ccc(Cl)cc2s1)(c1ccccc1)c1ccccc1 |  | active: 2 µM |
| O=C(O)c1ccccc1[As](=O)(O)O | inactive: 10.4% |  |
| CC(=O)Nc1ccc([As](=O)(O)O)cc1 | inactive: -20% |  |
| Nc1cccc2ccc([As](=O)(O)O)cc12 | inactive: 2.97% |  |
| CCN(N=Nc1nonc1N)c1nonc1N |  | active: 3.55 µM |
| O=[N+]([O-])c1cc([N+](=O)[O-])c(CCN2CCOCC2)c([N+](=O)[O-])c1 | inactive: -10.1% |  |
| O=C(Nc1cc([As](=O)(O)O)ccc1O)c1ccccc1 | inactive: -22.8% |  |
| O=C(O)CNc1ccc([As](=O)(O)O)cc1 | inactive: 3.27% |  |
| O=[N+]([O-])c1cccc(NC2=NCC(CBr)S2)c1 (stereo not given) | inactive: 1.86% |  |
| O=[N+]([O-])c1ncn(CCn2ncnc2[N+](=O)[O-])n1 | inactive: -31.6% |  |
| CCc1nc2c(n1)c1c(non1O)c1c2no[n+]1[O-] |  | active: 12.6 µM |
| Cc1ccc(NP(=O)(Oc2ccccc2)Oc2ccccc2)nc1 | inactive: 30.4% |  |
| CC(=O)N1C2C3N(C(C)=O)C1C1N(C(C)=O)C(C(N1C(C)=O)N3C(C)=O)N2C(C)=O | inactive: -15.9% |  |
| O=[N+]([O-])c1cccc2n[nH]nc12 | inactive: -5.95% |  |
| COc1ccc(C2=NCC(CBr)S2)cc1 (stereo not given) |  | active: 11.2 µM |
| CC(=O)C1=CCCC2CCC1N2 (stereo not given) | inactive: -13.5% |  |
| CC(C)=N/N=C(\N)N[N+](=O)[O-] | inactive: -5.79% |  |
| CCN(/C(=N/P(=O)(N1CCOCC1)N1CCOCC1)N1CCOCC1)c1ccc(OC)cc1 | inactive: 12.2% |  |
| Nc1ccc([As](=O)(O)c2ccc(N)cc2)cc1 | inactive: -18.8% |  |

Source: PubChem BioAssay AID2551 (National Center for Advancing Translational Sciences (NCATS), 2010)
